Target: NR2B-R (regulatory domain of NMDA receptor NR2B subunit) (Rattus norvegicus, UniProt Q00960)
Experiment: [14C]spermine filter binding to purified NR2B-R
Conditions: 40 µM [14C]spermine; % of binding with no addition

Chains of the proteins cited; added tags and fusions are not shown. Residues count along the entry.
UniProt Q00960, 27-390: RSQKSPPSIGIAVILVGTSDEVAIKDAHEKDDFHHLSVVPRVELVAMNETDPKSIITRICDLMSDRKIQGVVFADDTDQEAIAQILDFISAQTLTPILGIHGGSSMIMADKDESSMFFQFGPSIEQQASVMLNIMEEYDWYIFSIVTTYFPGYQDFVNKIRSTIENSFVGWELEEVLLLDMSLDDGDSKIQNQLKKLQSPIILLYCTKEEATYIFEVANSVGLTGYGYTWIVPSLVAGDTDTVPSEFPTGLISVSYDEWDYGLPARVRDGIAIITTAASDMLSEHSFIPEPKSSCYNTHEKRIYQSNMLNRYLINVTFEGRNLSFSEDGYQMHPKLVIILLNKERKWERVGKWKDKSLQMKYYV

NCC(=O)O [Glycine, glycine]
[14C]Spermine bound to NR2B-R in presence of addition, %: 101%

Source: publication PMC2690642 (Journal of neurochemistry, 2008)
